Results from patent publication US20060079453A1, “Hla binding peptides and their uses” (priority 2002, published 2006).
Read-outs that look alike come from different tables or passages of the source.

Amino acid sequences for entries named in this document (tags omitted). Residues count along the entry.
UniProt Q30154, 30-266: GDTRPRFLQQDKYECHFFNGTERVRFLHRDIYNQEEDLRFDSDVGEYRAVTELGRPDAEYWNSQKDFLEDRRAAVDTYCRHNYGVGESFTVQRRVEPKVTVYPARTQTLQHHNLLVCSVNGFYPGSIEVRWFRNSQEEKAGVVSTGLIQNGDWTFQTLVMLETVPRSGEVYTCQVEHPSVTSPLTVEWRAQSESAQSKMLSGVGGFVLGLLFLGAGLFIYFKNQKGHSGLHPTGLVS

Tests used:
Assay in all cases: biochemical
Type in all cases: binding
HLA-DR DRB1*0405 (DR4) = HLA-DR DRB1*0405 (DR4) (Homo sapiens, UniProt P01903+P01911, A100R/A169T/D86S/F76Y/I96L/K127E/L162R/M171V/N62H/P40V/Q125Y/R42H/S133A/S149N/S66Y/V115G/V209L/W38E)
HLA-DR DRB1*1101 (DR11) = HLA-DR DRB1*1101 (DR11) (Homo sapiens, UniProt P01903+P01911, A100R/A169T/A87E/I96F/K41T/L162R/M171V/P40S/Q125H/Q178H/Q39Y/Q99D/R42S/S66Y/T262R/V115G/W38E)
HLA-DR DRB5*0101 (DR51) = HLA-DR DRB5*0101 (DR51) (Homo sapiens, UniProt P01903+Q30154)
HLA-B*4402 = HLA-B*4402 (Homo sapiens, UniProt P01889, A223V/A65T/A93T/A95T/D201E/D98Y/E176V/E187L/E204Q/E69K/G107R/H137Y/K202T/L105A/L119I/N104T/N87E/Q56L/Q94N/R106L/R155S/R180D/S101N/S121R/S35A/S48T/T118I/V36M/W191S/Y140D/Y91S)
HLA-B*4001 = HLA-B*4001 (Homo sapiens, UniProt P01889, A65T/A93T/A95T/D138N/D98Y/E176V/E69K/N87E/Q56L/Q94N/R180L/S121R/S35A/S48T/T167S/V36M/W171L/Y33H/Y91S)
HLA-B*4501 = HLA-B*4501 (Homo sapiens, UniProt P01889, A329T/A65T/A93T/A95T/C349S/D138N/D201E/D98Y/E176V/E187L/E204Q/E69K/H137Y/K202T/L119W/N87E/Q56L/Q94N/R155S/R180D/S121R/S35A/S48T/V127L/V306I/V36M/W191S/Y140L/Y33H/Y91S)
HLA-B*4403 = HLA-B*4403 (Homo sapiens, UniProt P01889, A223V/A65T/A93T/A95T/D201E/D98Y/E176V/E187L/E204Q/E69K/G107R/H137Y/K202T/L105A/L119I/N104T/N87E/Q56L/Q94N/R106L/R155S/R180L/S101N/S121R/S35A/S48T/T118I/V36M/W191S/Y140D/Y91S)
HLA-B*4002 = HLA-B*4002 (Homo sapiens, UniProt P01889, A65T/A93T/A95T/D138N/D201E/D98Y/E176V/E204Q/E69K/K202T/N87E/Q56L/Q94N/R180L/S48T/Y33H/Y91S)
HLA-DR DRB1*0101 (DR1) = HLA-DR DRB1*0101 (DR1) (Homo sapiens, UniProt P01903+P01911, A100R/D57E/F55L/F60I/F76Y/I96L/L162R/M171V/P40L/Q125E/R42F/V115G/Y59C)
HLA-DR DRB1*0401 (DR4) = HLA-DR DRB1*0401 (DR4) (Homo sapiens, UniProt P01903+P01911, A100K/A169T/F76Y/I96L/K127E/L162R/M171V/N62H/P40V/Q125Y/R42H/S133A/S149N/S66Y/V115G/V209L/W38E)
HLA-DR DRB1*1501 (DR15) = HLA-DR DRB1*1501 (DR15) (Homo sapiens, UniProt P01903+P01911)
HLA-B*1801 = HLA-B*1801 (Homo sapiens, UniProt P01889, A329T/A93T/A95T/C349S/D201E/D54G/D98Y/E176V/E187T/E204Q/E69T/K202T/Q94N/R155S/R180L/S121R/V306I/Y140S/Y195H/Y33H/Y91S)
HLA-DR DRB4*0101 (DR53) = HLA-DR DRB4*0101 (DR53) (Homo sapiens, UniProt P01903+P13762, G164S); conditions: DRB4 *0101
HLA-DR DRB1*1302 (DR13) = HLA-DR DRB1*1302 (DR13) (Homo sapiens, UniProt P01903+P01911, A100E/A169T/K41T/L162R/M171V/P40S/Q125H/Q178H/Q39Y/Q99D/R42S/S66N/T262R/V115G/W38E/Y61H); conditions: DRBI *1302

## CC[C@H](C)[C@H](NC(=O)[C@H](Cc1ccc(O)cc1)NC(=O)[C@H](C)NC(=O)[C@H](CCC(=O)O)NC(=O)[C@H](CCC(=O)O)NC(=O)[C@H](Cc1ccccc1)NC(=O)[C@H](CCC(=O)O)NC(=O)[C@@H](N)CCC(N)=O)C(=O)N1CCC[C@H]1C(=O)N[C@@H](CCCCN)C(=O)N[C@@H](CCC(=O)O)C(=O)N[C@@H](CCC(N)=O)C(=O)N[C@@H](CCCCN)C(=O)N[C@@H](Cc1ccc(O)cc1)C(=O)N[C@@H](CO)C(=O)O
HLA-DR DRB1*0405 (DR4); DRB1 *0405
  IC50: 395 nM
HLA-DR DRB1*1101 (DR11); DRB1 *1101
  IC50: 12800 nM
HLA-DR DRB5*0101 (DR51); DRB5 *0101
  IC50: 5420 nM

## CC[C@H](C)[C@H](NC(=O)CNC(=O)[C@H](Cc1ccccc1)NC(=O)[C@@H](NC(=O)[C@H](CC(C)C)NC(=O)[C@H](CCC(N)=O)NC(=O)[C@H](CC(C)C)NC(=O)[C@H](Cc1ccc(O)cc1)NC(=O)[C@H](CCC(=O)O)NC(=O)[C@@H](N)CO)C(C)C)C(=O)O
HLA-B*4402
  IC50: 3.7 nM
HLA-B*4001
  IC50: 20 nM
HLA-B*4501
  IC50: 4.4 nM
HLA-B*4403
  IC50: 0.84 nM
HLA-B*4002
  IC50: 6.1 nM

## SDSNVYDLLKNLEEG
HLA-DR DRB1*0101 (DR1); read-out: DRB1 *0101
  IC50: 24400 nM
HLA-DR DRB1*0401 (DR4); read-out: DRB1 *0401
  IC50: 11000 nM
HLA-DR DRB1*0405 (DR4); read-out: DRB1 *0405
  IC50: 95 nM

## ALQAQKEAISPPDAA
HLA-DR DRB1*1501 (DR15); read-out: DRBI *1501
  IC50: 14200 nM
HLA-DR DRB1*1101 (DR11); read-out: DRB1 *1101
  IC50: 4210 nM
HLA-DR DRB5*0101 (DR51); read-out: DRB5 *0101
  IC50: 3960 nM

## CC(C)C[C@H](NC(=O)[C@H](CC(=O)O)NC(=O)[C@@H]1CCCN1C(=O)[C@H](Cc1ccccc1)NC(=O)[C@@H](NC(=O)[C@H](CO)NC(=O)[C@@H]1CCCN1C(=O)CNC(=O)[C@H](CCC(=O)O)NC(=O)[C@H](CCC(=O)O)NC(=O)[C@@H](N)CCC(=O)O)[C@@H](C)O)C(=O)O
HLA-B*4402
  IC50: 2680 nM
HLA-B*1801
  IC50: 935 nM
HLA-B*4001
  IC50: 431 nM
HLA-B*4501
  IC50: 158 nM
HLA-B*4403
  IC50: 102 nM
HLA-B*4002
  IC50: 2120 nM

## CC(C)C[C@H](NC(=O)[C@H](CC(C)C)NC(=O)[C@H](C)NC(=O)[C@H](CC(C)C)NC(=O)CNC(=O)[C@H](CCC(N)=O)NC(=O)[C@H](Cc1c[nH]c2ccccc12)NC(=O)[C@@H](NC(=O)[C@H](CCC(=O)O)NC(=O)[C@@H](NC(=O)[C@H](C)NC(=O)[C@H](CCC(N)=O)NC(=O)[C@H](CCC(N)=O)NC(=O)CNC(=O)[C@@H](N)C(C)C)C(C)C)C(C)C)C(=O)O
HLA-DR DRB1*1501 (DR15); DRBI *1501
  IC50: 12 nM
HLA-DR DRB1*0101 (DR1); DRB1 *0101
  IC50: 161 nM
HLA-DR DRB4*0101 (DR53)
  IC50: 3900 nM
HLA-DR DRB1*0405 (DR4); DRB1 *0405
  IC50: 923 nM
HLA-DR DRB1*1302 (DR13)
  IC50: 1310 nM

## CC[C@H](C)[C@H](NC(=O)[C@@H](NC(=O)[C@H](CCCCN)NC(=O)[C@@H](N)Cc1ccc(O)cc1)[C@@H](C)O)C(=O)N[C@@H](C)C(=O)N[C@@H](Cc1ccc(O)cc1)C(=O)N[C@@H](CC(=O)O)C(=O)N[C@@H](CCC(=O)O)C(=O)N[C@@H](CCC(=O)O)C(=O)N[C@@H](C)C(=O)N[C@@H](CCCNC(=N)N)C(=O)N[C@@H](CCCNC(=N)N)C(=O)O
HLA-DR DRB1*0401 (DR4); DRB1 *0401
  IC50: 4000 nM

## C[C@H](NC(=O)[C@H](CC(=O)O)NC(=O)[C@H](CC(=O)O)NC(=O)[C@H](CC(N)=O)NC(=O)[C@H](Cc1c[nH]cn1)NC(=O)[C@H](CO)NC(=O)[C@H](CC(N)=O)NC(=O)[C@@H](NC(=O)[C@H](CC(=O)O)NC(=O)[C@H](Cc1ccccc1)NC(=O)[C@H](CCCCN)NC(=O)[C@H](CO)NC(=O)[C@H](Cc1ccc(O)cc1)NC(=O)[C@@H](NC(=O)[C@@H](N)CCC(N)=O)[C@@H](C)O)[C@@H](C)O)C(=O)O
HLA-DR DRB1*1501 (DR15); DRBI *1501
  IC50: 25900 nM
HLA-DR DRB1*0101 (DR1); DRB1 *0101
  IC50: 17400 nM
HLA-DR DRB1*0401 (DR4); DRB1 *0401
  IC50: 97 nM
HLA-DR DRB1*0405 (DR4); DRB1 *0405
  IC50: 78 nM
HLA-DR DRB5*0101 (DR51); DRB5 *0101
  IC50: 5790 nM
